# Where “and” joins values, the source holds several entries; their conditions need not be identical. Equal entries are not always repeated. Only a part is listed here, and it is no random draw. Results filed as inconclusive are left out. Calls of active or inactive are those of the source. Unless noted, calls follow the shape of the dose curve; as a rule, active = well fitted curve in the direction sought with a large enough effect in the repeat runs; inconclusive = weak or mixed curves; inactive = no such curve, though single readings can be large; an effect the other way counts as inactive or inconclusive.
# Sequences of proteins named here, by UniProt entry; tags and fusion partners are left off.
# UniProt Q92731, whole entry: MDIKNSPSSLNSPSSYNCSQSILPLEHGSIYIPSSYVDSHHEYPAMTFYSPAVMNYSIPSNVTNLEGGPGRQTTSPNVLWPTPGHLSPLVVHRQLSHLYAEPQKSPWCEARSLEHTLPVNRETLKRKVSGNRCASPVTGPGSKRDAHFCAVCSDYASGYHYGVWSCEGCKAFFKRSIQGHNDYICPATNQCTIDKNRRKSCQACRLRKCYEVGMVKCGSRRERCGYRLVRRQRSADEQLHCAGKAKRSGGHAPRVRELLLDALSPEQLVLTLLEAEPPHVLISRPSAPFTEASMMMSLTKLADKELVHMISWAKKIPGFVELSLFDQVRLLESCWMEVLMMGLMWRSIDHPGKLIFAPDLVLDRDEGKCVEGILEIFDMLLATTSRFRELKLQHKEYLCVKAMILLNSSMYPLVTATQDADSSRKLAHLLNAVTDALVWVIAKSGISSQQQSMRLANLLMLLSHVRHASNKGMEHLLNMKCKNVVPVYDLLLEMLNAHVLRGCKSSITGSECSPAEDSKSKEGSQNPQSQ
# UniProt P10275, whole entry: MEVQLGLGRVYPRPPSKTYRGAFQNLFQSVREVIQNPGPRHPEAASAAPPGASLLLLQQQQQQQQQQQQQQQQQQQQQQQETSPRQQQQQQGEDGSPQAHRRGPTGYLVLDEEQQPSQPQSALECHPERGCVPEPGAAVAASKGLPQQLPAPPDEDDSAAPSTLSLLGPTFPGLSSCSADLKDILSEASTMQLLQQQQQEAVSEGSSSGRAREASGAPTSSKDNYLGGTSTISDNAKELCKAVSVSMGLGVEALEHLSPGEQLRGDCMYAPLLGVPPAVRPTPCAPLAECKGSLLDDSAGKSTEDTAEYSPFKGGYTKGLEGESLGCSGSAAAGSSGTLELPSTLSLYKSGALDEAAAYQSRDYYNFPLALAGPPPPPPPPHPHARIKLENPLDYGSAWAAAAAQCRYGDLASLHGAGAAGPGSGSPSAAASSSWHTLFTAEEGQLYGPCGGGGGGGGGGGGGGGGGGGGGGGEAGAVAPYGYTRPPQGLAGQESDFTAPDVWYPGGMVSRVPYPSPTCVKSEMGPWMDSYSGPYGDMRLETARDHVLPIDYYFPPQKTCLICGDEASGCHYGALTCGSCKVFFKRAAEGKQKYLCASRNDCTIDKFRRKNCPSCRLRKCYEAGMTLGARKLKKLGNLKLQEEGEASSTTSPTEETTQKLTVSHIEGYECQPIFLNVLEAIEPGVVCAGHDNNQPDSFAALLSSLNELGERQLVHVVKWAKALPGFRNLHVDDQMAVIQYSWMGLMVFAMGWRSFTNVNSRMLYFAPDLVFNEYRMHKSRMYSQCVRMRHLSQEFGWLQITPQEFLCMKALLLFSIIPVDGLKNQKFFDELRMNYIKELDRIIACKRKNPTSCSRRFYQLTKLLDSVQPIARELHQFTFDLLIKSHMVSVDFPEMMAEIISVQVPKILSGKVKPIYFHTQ
# UniProt P03372, whole entry: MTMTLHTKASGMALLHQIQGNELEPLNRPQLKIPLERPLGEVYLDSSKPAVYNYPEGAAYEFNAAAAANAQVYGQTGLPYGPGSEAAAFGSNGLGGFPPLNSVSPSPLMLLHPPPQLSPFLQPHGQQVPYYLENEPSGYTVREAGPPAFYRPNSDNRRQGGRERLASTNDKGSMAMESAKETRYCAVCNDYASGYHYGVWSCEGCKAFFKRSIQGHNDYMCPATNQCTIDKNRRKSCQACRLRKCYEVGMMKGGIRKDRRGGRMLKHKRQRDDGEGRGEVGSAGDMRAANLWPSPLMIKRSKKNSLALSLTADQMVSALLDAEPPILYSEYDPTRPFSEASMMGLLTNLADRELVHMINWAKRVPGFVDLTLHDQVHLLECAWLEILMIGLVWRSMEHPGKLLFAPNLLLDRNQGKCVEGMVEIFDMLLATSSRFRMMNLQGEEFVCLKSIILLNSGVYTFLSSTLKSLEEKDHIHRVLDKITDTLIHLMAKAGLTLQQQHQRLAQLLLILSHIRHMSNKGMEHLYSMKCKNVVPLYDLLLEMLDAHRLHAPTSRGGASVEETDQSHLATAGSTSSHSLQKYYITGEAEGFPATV
# UniProt P16473, whole entry: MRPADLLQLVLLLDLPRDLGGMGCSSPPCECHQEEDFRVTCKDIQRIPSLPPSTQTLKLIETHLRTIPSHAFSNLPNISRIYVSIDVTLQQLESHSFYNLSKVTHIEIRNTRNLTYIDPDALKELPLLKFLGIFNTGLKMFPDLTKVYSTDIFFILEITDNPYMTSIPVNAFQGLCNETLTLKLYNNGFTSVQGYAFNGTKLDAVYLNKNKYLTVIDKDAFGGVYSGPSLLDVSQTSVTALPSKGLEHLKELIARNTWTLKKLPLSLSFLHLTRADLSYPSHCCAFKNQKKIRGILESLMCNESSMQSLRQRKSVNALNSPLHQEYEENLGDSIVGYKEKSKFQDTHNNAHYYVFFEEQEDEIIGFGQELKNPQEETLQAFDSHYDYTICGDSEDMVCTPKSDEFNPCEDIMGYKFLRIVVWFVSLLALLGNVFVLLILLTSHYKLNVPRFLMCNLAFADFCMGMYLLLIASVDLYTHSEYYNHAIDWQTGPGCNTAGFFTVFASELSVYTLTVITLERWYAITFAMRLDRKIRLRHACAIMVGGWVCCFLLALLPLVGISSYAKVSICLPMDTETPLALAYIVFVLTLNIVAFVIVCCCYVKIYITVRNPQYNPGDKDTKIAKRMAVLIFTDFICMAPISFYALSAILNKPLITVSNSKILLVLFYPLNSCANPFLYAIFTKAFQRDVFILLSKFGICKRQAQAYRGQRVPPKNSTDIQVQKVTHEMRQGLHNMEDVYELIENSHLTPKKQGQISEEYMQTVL
# System: not listed separately
# Assay: qHTS assay to identify small molecule antagonists of the sonic hedgehog signaling (Shh) pathway (AID 1259369; calls by dose curve; also: nearly all actives have a fitted effect of over 45% in size)
# Details: NIH/3T3 Gli1-Luc reporter, Shh antagonist, luminescence 24 h; at 92.4 µM (top of the series) unless noted
# How it was run: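 Conditioned medium drives Shh signalling in 3T3Gli1-Luc cells; compounds in DMSO co-applied, 24hr at 37 C, then luciferase luminescence.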
# % is scaled to controls: 0 for no effect and ±100 for the full control effect.
row,Compound,"activity change, negative = inhibition"
1,CCOP(=O)(Cl)Cl,inactive: 5.37% and inactive: 13.8%
2,CCOP(=S)(Cl)OCC,inactive: -7.94%
3,CCC(=O)N(c1ccccc1)C1CCNCC1,inactive: 3.51% [at 42.5 µM]
4,CCOC(=O)N1CCC(=O)CC1,inactive: 12.5% [at 42.5 µM]
5,ClCCOP(OCCCl)OCCCl,inactive: 20.4% and inactive: 13.8%
6,CC(C)OP(OC(C)C)OC(C)C,inactive: 15.9%
7,ClCCNCCCl,inactive: -11.5%

# Molecular target: Estrogen receptor beta (Homo sapiens) (UniProt Q92731)
# Assay: qHTS assay to identify small molecule agonists of the estrogen receptor beta (ER-beta) signaling pathway (AID 1259377; active = well fitted activation curve with a large enough effect in the signal ratio in the repeat runs, not every such curve was filed as active; the % refers to the signal ratio)
# Details: ER-beta-UAS-bla HEK293T, beta-lactamase FRET ratio, 16 h; at 92.4 µM (top of the series) unless noted
row,Compound,activation
1,O=[N+]([O-])c1ccccc1[N+](=O)[O-],inactive: -0.426%
2,CCOC(=O)N1CCC(=O)CC1,inactive: -3.44% [at 42.5 µM]
3,CC(C)OP(OC(C)C)OC(C)C,inactive: 3.96%
4,ClCCNCCCl,inactive: -3.49%

# Molecular target: Estrogen receptor beta (Homo sapiens) (UniProt Q92731)
# Assay: qHTS assay to identify small molecule antagonists of the estrogen receptor beta (ER-beta) signaling pathway (AID 1259378; active = well fitted inhibition curve with a large enough effect in the signal ratio in the repeat runs, not every such curve was filed as active; the % refers to the signal ratio)
# Details: ER-beta-UAS-bla HEK293T, beta-lactamase FRET ratio, 16 h; at 92.4 µM (top of the series) unless noted
# How it was run: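 ER-beta-UAS-bla HEK293T (GripTite) cells in 2% charcoal-stripped FBS medium were preincubated 6 hr at 37C, dosed with compound, then stimulated with 1 nM E2 (final) for 16 hr; beta-lactamase reporter read by B/G FRET fluorescence after 2 hr substrate loading.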
row,Compound,"activity, negative = inhibition"
1,O=[N+]([O-])c1ccccc1[N+](=O)[O-],inactive: -25.4%
2,CCOC(=O)N1CCC(=O)CC1,inactive: -6.41% [at 42.5 µM]
3,CC(C)OP(OC(C)C)OC(C)C,inactive: 0.698%
4,ClCCNCCCl,inactive: 11.3%

# System: not listed separately
# Assay: qHTS assay to identify small molecule agonists of the androgen receptor (AR) signaling pathway in the presence of an antagonist - cell viability counter screen (AID 1259379); also: nearly all actives have a fitted effect of over 25% in size; also: potency is read from the fitted curve at half-maximal effect;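 as to activity change, negative = cytotoxicity: MDA-kb2 human breast cancer cells carrying an MMTV luciferase reporter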
# Details: MDA-kb2 viability, CellTiter-Fluor, 16 h; series mostly up to 92.4 µM; activity change, negative = cytotoxicity: at the top concentration
# How it was run: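 A CellTiter-Fluor read-out measured viability of MDA-kb2 reporter cells (MMTV promoter with AR and GR response elements). Treatment: nilutamide 3.0uM final with compounds at 15 concentrations, 16 hr, 37C, 0% CO2.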
Compound,Potency,"activity change, negative = cytotoxicity"
O=[N+]([O-])c1ccccc1[N+](=O)[O-],active: 62.7 µM,–
CCOP(=O)(Cl)Cl,inactive,–
CCOP(=S)(Cl)OCC,–,inactive: 0.251%
CCC(=O)N(c1ccccc1)C1CCNCC1,–,inactive: -4.13% [at 42.5 µM]
CCOC(=O)N1CCC(=O)CC1,–,inactive: 1.66% [at 42.5 µM]
ClCCOP(OCCCl)OCCCl,inactive,–
CC(C)OP(OC(C)C)OC(C)C,–,inactive: -2.46%
ClCCNCCCl,–,inactive: -2.02%

# System: not listed separately
# Assay: qHTS assay to identify small molecule agonists of the estrogen receptor beta (ER-beta) signaling pathway - cell viability counter screen (AID 1259380); also: nearly all actives have a fitted effect of over 30% in size
# Details: ER-beta-bla HEK293T viability, CellTiter-Glo luminescence, 16 h; at 92.4 µM (top of the series) unless noted
# How it was run: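 Cells used were ER-beta-UAS-bla HEK293T in medium with 2% charcoal-stripped FBS. They were treated for 16 hr at 37C. Viability came from CellTiter-Glo luminescence.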
row,Compound,"activity change, negative = cytotoxicity"
1,CCOP(=O)(Cl)Cl,inactive: 2.29% and inactive: -0.0404%
2,CCOP(=S)(Cl)OCC,inactive: 5.62%
3,CCC(=O)N(c1ccccc1)C1CCNCC1,inactive: 4.08% [at 42.5 µM]
4,CCOC(=O)N1CCC(=O)CC1,inactive: 0.24% [at 42.5 µM]
5,ClCCOP(OCCCl)OCCCl,inactive: -0.515% and inactive: 1.46%
6,CC(C)OP(OC(C)C)OC(C)C,inactive: 5.15%
7,ClCCNCCCl,inactive: -3.53%

# Molecular target: Androgen receptor (Homo sapiens) (UniProt P10275)
# Assay: qHTS assay to identify small molecule agonists of the androgen receptor (AR) signaling pathway in the presence of an antagonist (AID 1259381; calls by dose curve; also: nearly all actives have a fitted effect of over 15% in size)
# Details: MDA-kb2 MMTV-luciferase, AR agonist + nilutamide, 16 h; at 92.4 µM (top of the series) unless noted
row,Compound,activation
1,CCC(=O)N(c1ccccc1)C1CCNCC1,inactive: 4.42% [at 42.5 µM]
2,CCOC(=O)N1CCC(=O)CC1,inactive: 0.28% [at 42.5 µM]
3,CC(C)OP(OC(C)C)OC(C)C,inactive: -2.4%
4,ClCCNCCCl,inactive: 2.56%

# System: not listed separately
# Assay: qHTS assay to identify small molecule antagonists of the estrogen receptor beta (ER-beta) signaling pathway - cell viability counter screen (AID 1259382); also: nearly all actives have a fitted effect of over 55% in size
# Details: ER-beta-UAS-bla HEK293T viability, CellTiter-Glo luminescence, 16 h; at 92.4 µM (top of the series) unless noted
# How it was run: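 Agonist-stimulated (1nM E2) ER-beta-UAS-bla HEK293T cells are incubated with library compounds for 16 hr at 37C. Cell viability is then assessed in the reporter-assay wells by adding CellTiter-Glo and reading luminescence after 30 min.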
row,Compound,"activity change, negative = cytotoxicity"
1,O=[N+]([O-])c1ccccc1[N+](=O)[O-],inactive: -16.3%
2,CCOP(=O)(Cl)Cl,inactive: 0.339% and inactive: 5.01%
3,CCOP(=S)(Cl)OCC,inactive: 2.84%
4,CCC(=O)N(c1ccccc1)C1CCNCC1,inactive: 5.36% [at 42.5 µM]
5,CCOC(=O)N1CCC(=O)CC1,inactive: 0.724% [at 42.5 µM]
6,ClCCOP(OCCCl)OCCCl,inactive: -0.191% and inactive: 5.43%
7,CC(C)OP(OC(C)C)OC(C)C,inactive: 11.9%
8,ClCCNCCCl,inactive: 0%

# Molecular target: Estrogen receptor (Homo sapiens) (UniProt P03372)
# Assay: qHTS assay to identify small molecule agonists of the estrogen receptor alpha (ER-alpha) signaling pathway in the presence of an antagonist (AID 1259383; calls by dose curve; also: top concentration of the series differs between compounds; nearly all actives have a fitted effect of over 15% in size)
# Details: VM7Luc4E2 cells, ERE-luciferase, +ICI-182,780, 22 h; at 92.4 µM (top of the series) unless noted
row,Compound,activation
1,CCC(=O)N(c1ccccc1)C1CCNCC1,inactive: -0.0388% [at 42.5 µM]
2,ClCCOP(OCCCl)OCCCl,inactive: -0.0421% and inactive: -0.069%
3,ClCCNCCCl,inactive: -0.0401%

# System: not listed separately
# Assay: qHTS assay to identify small molecule agonists or antagonists of the thyroid stimulating hormone receptor (TSHR) signaling pathway - wild type cell line counter screen (AID 1259384; calls by dose curve)
# Details: HEK293 wild type, cAMP HTRF counter-screen, hits give high values; at 92.4 µM (top of the series) unless noted
# How it was run: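 Wild-type HEK293 cells were plated 18 h at 37 C/5% CO2, pin-dosed with compound plus Ro20-1724 medium, held 30 min at room temperature, then given cAMP-d2 and anti-cAMP-cryptate; fluorescence was read after 1 h. Fifteen concentrations, triplicate.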
row,Compound,cAMP activity change
1,O=[N+]([O-])c1ccccc1[N+](=O)[O-],inactive: -5.55% and inactive: -1.44%
2,CCOP(=O)(Cl)Cl,inactive: -6.71% and inactive: -0.0745%
3,CCOP(=S)(Cl)OCC,inactive: 7.12%
4,CCC(=O)N(c1ccccc1)C1CCNCC1,inactive: -1.64% [at 42.5 µM]
5,CCOC(=O)N1CCC(=O)CC1,inactive: 3.24% [at 42.5 µM]
6,ClCCOP(OCCCl)OCCCl,inactive: -5.69%
7,CC(C)OP(OC(C)C)OC(C)C,inactive: 1.54%
8,ClCCNCCCl,inactive: 3.44%

# Molecular target: Thyrotropin receptor (Homo sapiens) (UniProt P16473)
# Assay: qHTS assay to identify small molecule antagonists of the thyroid stimulating hormone receptor (TSHR) signaling pathway (AID 1259385; calls by dose curve; also: nearly all actives have a fitted effect of over 20% in size)
# Details: TSHR-HEK293 cAMP HTRF, TSH-stimulated antagonist mode; at 92.4 µM (top of the series) unless noted
row,Compound,"activity change, negative = inhibition"
1,O=[N+]([O-])c1ccccc1[N+](=O)[O-],inactive: 7.59% and inactive: 6.69%
2,CCOP(=O)(Cl)Cl,inactive: -0.391% and inactive: -0.452%
3,CCOP(=S)(Cl)OCC,inactive: 3.43%
4,CCC(=O)N(c1ccccc1)C1CCNCC1,inactive: -0.296% [at 42.5 µM]
5,CCOC(=O)N1CCC(=O)CC1,inactive: 1.54% [at 42.5 µM]
6,ClCCOP(OCCCl)OCCCl,inactive: 0.293% and inactive: -0.439%
7,CC(C)OP(OC(C)C)OC(C)C,inactive: 1.93%
8,ClCCNCCCl,inactive: 0.627%

# System: not listed separately
# Assay: qHTS assay to identify small molecule agonists of the estrogen receptor alpha (ER-alpha) signaling pathway in the presence of an antagonist - cell viability counter screen (AID 1259386);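 also: cells exposed to compounds for 22 h at 37 °C before the viability read; nearly all actives have a fitted effect of over 30% in size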
# Details: VM7Luc4E2 viability, CellTiter-Fluor fluorescence, 22 h; at 92.4 µM (top of the series) unless noted
# How it was run: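 ICI-182,780 at 10.0nM final accompanies the compound titration (15 concentrations, 22hr, 37C) on VM7Luc4E2 cells. The CellTiter-Fluor fluorescence readout runs in the same wells as the luciferase assay.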
row,Compound,"activity change, negative = cytotoxicity"
1,O=[N+]([O-])c1ccccc1[N+](=O)[O-],inactive: -12.5%
2,CCOP(=O)(Cl)Cl,inactive: 0.683% and inactive: 1.32%
3,CCOP(=S)(Cl)OCC,inactive: -0.406%
4,CCC(=O)N(c1ccccc1)C1CCNCC1,inactive: 4.2% [at 42.5 µM]
5,CCOC(=O)N1CCC(=O)CC1,inactive: 1.34% [at 42.5 µM]
6,ClCCOP(OCCCl)OCCCl,inactive: -2.83% and inactive: 0.182%
7,CC(C)OP(OC(C)C)OC(C)C,inactive: -0.22%
8,ClCCNCCCl,inactive: -10.5%

# From PubChem BioAssay (Tox21)
